Literature values, collected in article PMC6572996, “Silver(I) Complexes of the Pharmaceutical Agents Metronidazole and 4-Hydroxymethylpyridine: Comparison of Cytotoxic Profile for Potential Clinical Application” (Molecules, 2019).

Assays:
[1] = tested on: murine melanoma cell line (B16F10); details: concentration range 1 to 10 µM, 72 h incubation; cited from earlier work
[2] = tested on: murine melanocyte cell line (Melan-a); details: concentration range 1 to 10 µM, 72 h incubation; cited from earlier work
NIH 3T3 fibroblasts = details: higher concentrations (1.5%), exposure 72 h; cited from earlier work

For `O=[N+]([O-])[O-].[Ag+]` [Silver nitrate], the “Cytotoxicity in B16F10” value [1] is listed as “not cytotoxic”, the “Cytotoxicity in Melan-a” value [2] is listed as “not cytotoxic” and the “Toxicity on NIH 3T3 fibroblasts” value (NIH 3T3 fibroblasts) is listed as “toxic action”.
